The assay in a line: Receptor Radioligand Binding Assay: Human Embryonic Kidney 293 cells (HEK293) stably expressing rat orexin 1 receptor (Genebank accession number NM_001525) or Chinese ovary cells (CHO) stably expressing human orexin 1 receptor (Genebank accession number NM_001526) were grown to confluency in DMEM (Hyclone, cat # SH30022), 10% FBS, 1× Pen/Strep, 1× sodium pyruvate, 10 mM HEPES, 600 μg/mL G418 and DMEM/F12 (Gibco, Cat #11039), 10% FBS, 1× Pen/Strep, 600 μg/mL G418 media, respectively on 150 cm2 tissue culture plates, washed with 5 mM EDTA in PBS (HyClone Dulbecco's Phosphate Buffered Saline 1× with Calcium and Magnesium, Cat # SH30264.01, hereafter referred to simply as PBS) and scraped into 50 ml tubes. After centrifugation (2K×G, 5 min at 4° C.), the supernatant was aspirated and the pellets frozen and stored at −80° C. Cells were resuspended in PBS in the presence of 1 tablet of protease inhibitor cocktail (Roche, Cat. #11836145001) per 50 mL. Each cell pellet from a 15 cm plate was resuspended in 10 mL, stored on ice, and homogenized for 45 sec prior to addition to the reactions. Competition binding experiments in 96 well polypropylene plates were performed using [3H] […].

SMILES strings stand for the structures. Bounds are passed on as bounds.

Broadly, the Ki is a measure of affinity in units of concentration, obtained from inhibition or displacement.

In the case of `Cc1ccc(-n2nccn2)c(C(=O)N2C(C)C3CC(Oc4ccc(C(F)(F)F)cn4)C2C3)n1` (single isomer, unassigned; form 1), the Ki was above 10 µM.
With `Cc1ccc(-n2nccn2)c(C(=O)N2C(C)C3CC(Oc4ccc(C(F)(F)F)cn4)C2C3)n1` (single isomer, unassigned; form 2), the Ki was above 10 µM.
